## AlphaSeq binding of Ab-14 light chain variants to a spike HR2 peptide

Target: peptide PDVDLGDISGINAS, taken from heptad repeat 2 (HR2) of SARS-CoV-2 spike.

Each scFv is VH, a 15-residue (Gly4Ser)3 linker, VL, as in the parent Ab-14, and differs from it in the CDRs of the light chain only.
VH: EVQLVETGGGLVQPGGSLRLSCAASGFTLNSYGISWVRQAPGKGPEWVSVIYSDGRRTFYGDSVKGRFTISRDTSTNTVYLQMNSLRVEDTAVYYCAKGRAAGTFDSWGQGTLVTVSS
VL: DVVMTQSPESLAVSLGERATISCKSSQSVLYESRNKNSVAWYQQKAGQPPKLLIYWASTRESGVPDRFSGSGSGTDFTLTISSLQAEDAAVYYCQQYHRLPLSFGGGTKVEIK

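The parent was found by panning a naive human phage display library on the peptide. This is the validation round: designs drawn from the data on random variants, tested in the same kind of assay. Several design methods are mixed in this list. Affinity was read by AlphaSeq, a pooled yeast mating assay with surface-displayed partners. After mating in shaken culture at 30 °C for 16 h, diploids were selected and their barcode pairs sequenced. A regression on co-assayed BCL2-family reference pairs converts the normalised counts of each replicate to an apparent Kd. Each pool was mated in six replicate cultures.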

Substitutions are numbered in sequence along the VL above, starting at 1 (not Kabat). Variants here have at most six changes. Scale: log10 of Kd in nM, estimated from mating counts; low values are strong binders. A mean of the replicates is given; it leaves out those without a signal. An entry "nd" has no value in the source: the pair was not observed among the diploids in that replicate. This suggests poor binding but is not conclusive.

changes	log10 Kd, replicates	log10 Kd (nM), mean
S25L/V29T/W56Q/S103T	0.19 0.26 -0.15 -0.08 0.03 0.20	0.07
S25H/V29W/W56G/S62N	-0.05 0.27 -0.03 -0.02 -0.13 0.06	0.02
R34V/S38P/S62E/Q96C	nd nd nd nd nd nd	nd
S33E/A57G	1.67 1.25 2.22 1.96 1.63 2.02	1.79
S25L/S26G/S28G/N35V/W56G	-0.05 -0.15 -0.21 -0.30 -0.23 -0.07	-0.17
K24H/Q27W/S28V/W56N/Q95G	1.49 1.08 1.78 1.45 1.39 1.42	1.43
S25D/E32S/R34N	1.75 2.52 1.94 1.06 1.55 2.06	1.81
S25V/V29H/W56E	0.65 0.65 0.55 0.62 0.46 0.73	0.61
S25V/S26R/V29T/W56R	0.99 0.92 0.90 1.02 1.11 0.89	0.97
S25L/S26P/V29N/W56E/T59Q	-0.09 -0.30 -0.21 -0.37 -0.32 -0.13	-0.24
S25C/W56H/Y97T	2.31 nd nd nd nd nd	2.31
S25M/L30D/W56Y	0.29 0.12 0.35 0.20 -0.15 0.40	0.20
S25I/S26D/S28G/V29A/W56G	-0.29 -0.33 -0.26 -0.53 -0.55 -0.27	-0.37
S25A/W56D	nd nd nd nd nd nd	nd
S28H/W56A/H98K	1.07 1.11 1.17 1.10 1.02 1.24	1.12
K24H/S25Q/Q27P/W56N/A57G/S62D	-0.11 -0.50 -0.56 -0.67 -0.53 -0.21	-0.43
S25L/S26Y/W56N	0.21 -0.04 -0.02 -0.11 0.20 -0.01	0.04
K24V/S25L/W56N/S62Q	-0.01 -0.18 -0.15 -0.17 -0.07 0.11	-0.08
S25L/S26Q/L30P/W56N/T59Y	1.13 0.55 0.49 0.50 0.53 0.97	0.69
S26G/S28G/K36Q/W56G	0.47 0.23 0.17 0.19 0.20 0.39	0.28
S25V/R34H/W56N/E61M	0.43 0.18 0.48 0.06 0.27 0.40	0.30
S25W/V29D/Y31L/K36H/W56H/E61C	2.64 1.36 1.29 1.64 1.51 1.27	1.62
S25L/Q27G/V29W/W56G	-0.49 -0.53 -0.68 -0.73 -0.51 -0.54	-0.58
S38N/R99Y	nd 2.27 3.50 nd nd nd	2.88
S25V/S26R/V29T/W56Y	0.38 0.37 0.45 0.46 0.23 0.47	0.39
Q27N/V29G/N35M/W56E	0.59 0.47 0.33 0.41 0.22 0.57	0.43
K24H/Q27P/L30W/W56N/S62E/Q96D	0.22 0.54 0.22 0.05 0.26 0.27	0.26
S25L/S26P/V29E/W56S	-0.11 0.05 -0.14 -0.25 -0.16 0.06	-0.09
S25V/L30P/W56N/S103M	nd nd 1.59 1.93 1.78 nd	1.77
K24H/S25F/Q27P/W56N/S103Q	-0.49 -0.15 -0.77 -0.53 -0.57 -0.05	-0.43
Q27I/V29E/W56E/S103M	0.21 -0.04 -0.17 -0.21 -0.03 0.08	-0.03
K24S/Q27R/R34T/V39I/H98L	1.20 nd nd nd 2.10 1.28	1.53
K24D/Q27G/V29W/W56G	0.26 0.76 0.31 -0.06 0.41 -0.09	0.26
S28Q/K36T/V39I	nd nd nd nd nd nd	nd

The first 3 variants above that were never detected:

changes,"log10 Kd, replicates","log10 Kd (nM), mean"
R34V/S38P/S62E/Q96C,nd nd nd nd nd nd,nd
S25A/W56D,nd nd nd nd nd nd,nd
S28Q/K36T/V39I,nd nd nd nd nd nd,nd

Values of this round are not directly comparable with the first-round values of the same sequences. In the paper, a design with two or fewer of six values counts as a poor binder. The parent sequence was in this pool as ten entries: three were never detected, three once, and four in most replicates, with averages from 0.34 to 2.37. Background: pairings of all light chain designs with three empty control strains gave a value in 4% of cases (median 2.64, 5th percentile 1.59). Values in that range, when seen in few replicates, are hard to tell from nonspecific mating.

Values reported by Li et al. 2023, doi:10.1038/s41467-023-39022-2 (FLAb copy).